Results on 1 molecule are retold here after ChEMBL document CHEMBL2150880, “Discovery and characterization of small molecule inhibitors of the BET family bromodomains” (J Med Chem, 2011).

Chains of the proteins cited; added tags and fusions are not shown.
UniProt Q15059, whole entry: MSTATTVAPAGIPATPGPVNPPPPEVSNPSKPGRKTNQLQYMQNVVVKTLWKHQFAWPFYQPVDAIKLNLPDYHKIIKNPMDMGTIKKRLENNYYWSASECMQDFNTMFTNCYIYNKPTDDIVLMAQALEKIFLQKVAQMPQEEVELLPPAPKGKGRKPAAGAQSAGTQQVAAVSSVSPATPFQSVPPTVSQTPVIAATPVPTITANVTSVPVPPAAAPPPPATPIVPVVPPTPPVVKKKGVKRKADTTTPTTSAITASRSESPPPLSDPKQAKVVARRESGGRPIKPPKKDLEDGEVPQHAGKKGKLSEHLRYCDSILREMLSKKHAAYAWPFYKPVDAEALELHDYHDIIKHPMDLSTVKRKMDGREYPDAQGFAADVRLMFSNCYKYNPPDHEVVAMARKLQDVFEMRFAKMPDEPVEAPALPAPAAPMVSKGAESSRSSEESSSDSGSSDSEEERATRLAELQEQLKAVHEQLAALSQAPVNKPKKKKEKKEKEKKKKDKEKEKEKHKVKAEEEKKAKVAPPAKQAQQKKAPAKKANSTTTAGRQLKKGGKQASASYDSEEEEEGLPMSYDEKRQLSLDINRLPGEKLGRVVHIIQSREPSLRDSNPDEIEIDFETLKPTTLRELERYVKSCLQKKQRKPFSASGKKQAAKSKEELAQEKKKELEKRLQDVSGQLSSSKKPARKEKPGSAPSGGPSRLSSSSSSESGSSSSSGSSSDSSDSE

Each structure is given as a SMILES string.

For assay [1], the target named is T1, Bromodomain-containing protein 3 (Homo sapiens, UniProt Q15059). The experiment in a line: Binding affinity to N-terminal portion of human Brd3 containing bromodomain BD12 expressed in Escherichia coli by isothermal titration calorimetric analysis. A general note: In ITC the heat of successive injections is recorded.
In assay [2] the target is T1, Bromodomain-containing protein 3. The assay is described as follows: Displacement of tetra-acetylated H4 peptide from human Brd3 bromodomain BD12 after 1 hr by FRET analysis.

On to `Cc1nnc2n1-c1ccccc1C(c1ccccc1)=NC2NC(=O)OCc1ccccc1` (configuration not stated), for which the Kd in assay [1] is 19 nM. The same molecule registered a 50% inhibitory concentration (IC50) in assay [2] of 28.4 nM.

As usually defined, the Kd is the free concentration of one partner at which half of the binding sites on the other are occupied at equilibrium, for simple one-to-one binding. Higher therefore signals weaker binding. A word on the IC50: it is the point on the concentration scale where inhibition reaches its midpoint. Higher therefore signals weaker potency.
